Reference: patent US20110098214A1 (priority 2005, published 2011)

Assay: Stability in blood (human blood plasma, HPLC)
Format: in vitro ADME
In the case of `CC[C@H](C)[C@H](NC(=O)[C@H](CO)NC(=O)[C@H](CO)NC(=O)[C@@H](NC(=O)[C@H](CO)NC(=O)[C@H](CO)NC(=O)[C@H](CO)NC(=O)[C@H](Cc1ccc(O)cc1)NC(=O)[C@@H](N)CCCCN)[C@@H](C)CC)C(=O)N[C@@H](CCCNC(=N)N)C(=O)N[C@@H](C)C(=O)N[C@@H](CS)C(=O)O`, the “(e) evaluation with respect to the stability in blood” value (shortened to “(e) evaluation”) was “B (a peptide which is degraded in blood plasma in 30 minutes to 1 hour)”. In the case of `CC[C@H](C)[C@H](NC(=O)[C@H](CO)NC(=O)[C@H](CO)NC(=O)[C@@H](NC(=O)[C@H](CO)NC(=O)[C@H](CO)NC(=O)[C@H](CO)NC(=O)[C@H](Cc1ccc(O)cc1)NC(=O)[C@H](CC(N)=O)NC(=O)[C@H](CCCCN)NC(=O)[C@H](CCCCN)NC(C)=O)[C@@H](C)CC)C(=O)N[C@@H](CCCNC(=N)N)C(=O)N[C@@H](C)C(=O)N[C@@H](CS)C(=O)O`, the “(e) evaluation” value was “A (a peptide which remains in blood plasma over 1 hour)”. In the case of `CC[C@H](C)[C@H](NC(=O)[C@H](CO)NC(=O)[C@H](CO)NC(=O)[C@@H](NC(=O)[C@H](CO)NC(=O)[C@H](CO)NC(=O)[C@H](CO)NC(=O)[C@H](Cc1ccc(O)cc1)NC(=O)[C@H](CC(N)=O)NC(=O)[C@H](N)CCCCN)[C@@H](C)CC)C(=O)N[C@@H](CCCNC(=N)N)C(=O)N[C@@H](C)C(=O)N[C@H](CS)C(=O)O`, the “(e) evaluation” value was “A (a peptide which remains in blood plasma over 1 hour)”. In the case of `CC[C@H](C)[C@H](NC(=O)[C@H](CO)NC(=O)[C@H](CO)NC(=O)[C@@H](NC(=O)[C@H](CO)NC(=O)[C@H](CO)NC(=O)[C@H](CO)NC(=O)[C@H](Cc1ccc(O)cc1)NC(=O)[C@H](CC(N)=O)NC(=O)[C@H](N)CCCNC(=N)N)[C@@H](C)CC)C(=O)N[C@@H](CCCNC(=N)N)C(=O)N[C@@H](C)C(=O)N[C@@H](CS)C(=O)O`, the “(e) evaluation” value was “A (a peptide which remains in blood plasma over 1 hour)”. For `CC[C@H](C)[C@H](NC(=O)[C@H](CO)NC(=O)[C@H](CO)NC(=O)[C@@H](NC(=O)[C@H](CO)NC(=O)[C@H](CO)NC(=O)[C@H](CO)NC(=O)[C@H](Cc1ccc(O)cc1)NC(=O)[C@H](CC(N)=O)NC(=O)[C@@H](CCCCN)NC(=O)CN)[C@@H](C)CC)C(=O)N[C@@H](CCCNC(=N)N)C(=O)N[C@@H](C)C(=O)N[C@@H](CS)C(=O)O`, the “(e) evaluation” value was “A (a peptide which remains in blood plasma over 1 hour)”. For `CC[C@H](C)[C@H](NC(=O)[C@H](CO)NC(=O)[C@H](CO)NC(=O)[C@@H](NC(=O)[C@H](CO)NC(=O)[C@H](CO)NC(=O)[C@H](CO)NC(=O)[C@H](Cc1ccc(O)cc1)NC(=O)[C@@H](CC(N)=O)NC(=O)[C@H](N)CCCCN)[C@@H](C)CC)C(=O)N[C@@H](CCCNC(=N)N)C(=O)N[C@@H](C)C(=O)N[C@@H](CS)C(=O)O`, the “(e) evaluation” value was “A (a peptide which remains in blood plasma over 1 hour)”. For `CC[C@H](C)[C@H](NC(=O)[C@H](CO)NC(=O)[C@H](CO)NC(=O)[C@@H](NC(=O)[C@H](CO)NC(=O)[C@H](CO)NC(=O)[C@H](CO)NC(=O)[C@H](Cc1ccc(O)cc1)NC(=O)[C@H](N)CCCCN)[C@@H](C)CC)C(=O)N[C@@H](CCCNC(=N)N)C(=O)N[C@@H](C)C(=O)N[C@H](CS)C(=O)O`, the “(e) evaluation” value was “A (a peptide which remains in blood plasma over 1 hour)”. With `CC[C@H](C)[C@H](NC(=O)[C@H](CO)NC(=O)[C@H](CO)NC(=O)[C@@H](NC(=O)[C@H](CO)NC(=O)[C@H](CO)NC(=O)[C@H](CO)NC(=O)[C@H](Cc1ccc(O)cc1)NC(=O)[C@H](CC(N)=O)NC(=O)[C@H](N)CCCCN)[C@@H](C)CC)C(=O)N[C@@H](CCCNC(=N)N)C(=O)N[C@@H](C)C(=O)N[C@@H](CS)C(=O)O` the “(e) evaluation” value was “A (a peptide which remains in blood plasma over 1 hour)”. In the case of `CC[C@H](C)[C@H](NC(=O)[C@H](CO)NC(=O)[C@H](CO)NC(=O)[C@@H](NC(=O)[C@H](CO)NC(=O)[C@H](CO)NC(=O)[C@H](CO)NC(=O)[C@H](Cc1ccc(O)cc1)NC(=O)[C@H](CC(N)=O)NC(=O)[C@@H](N)CCCNC(=N)N)[C@@H](C)CC)C(=O)N[C@@H](Cc1c[nH]cn1)C(=O)N[C@@H](C)C(=O)N[C@@H](CS)C(=O)O`, the “(e) evaluation” value was “C (a peptide which is completely degraded in blood plasma in 10 minutes to 30 minutes)”. With `CC[C@H](C)[C@H](NC(=O)[C@H](CO)NC(=O)[C@H](CO)NC(=O)[C@@H](NC(=O)[C@H](CO)NC(=O)[C@H](CO)NC(=O)[C@H](CO)NC(=O)[C@H](Cc1ccc(O)cc1)NC(=O)[C@H](CC(N)=O)NC(=O)[C@@H](N)CCCNC(=N)N)[C@@H](C)CC)C(=O)N[C@@H](CCCNC(=N)N)C(=O)N[C@@H](C)C(=O)N[C@@H](CS)C(=O)O` the “(e) evaluation” value was “C (a peptide which is completely degraded in blood plasma in 10 minutes to 30 minutes)”. With `CC[C@H](C)[C@H](NC(=O)[C@H](CO)NC(=O)[C@H](CO)NC(=O)[C@@H](NC(=O)[C@H](CO)NC(=O)[C@H](CO)NC(=O)[C@H](CO)NC(=O)[C@H](Cc1ccc(O)cc1)NC(=O)[C@H](N)CCCCN)[C@@H](C)CC)C(=O)N[C@@H](CCCNC(=N)N)C(=O)N[C@@H](C)C(=O)N[C@@H](CS)C(=O)O` the “(e) evaluation” value was “A (a peptide which remains in blood plasma over 1 hour)”.
